Source: patent publication US20200010910A1, “Cytotoxic Chemotherapy-Based Predictive Assays for Acute Myeloid Leukemia” (The Regents of The University of California, priority 2017, published 2020)

Legend:
[1] = sterile solution in water, upon freezing
[2] = safety of radiolabeled microdose in patients; settings: IV microdose, 1% of the therapeutic dose

O=C1[O][Pt]2([NH][C@@H]3CCCC[C@H]3[NH]2)[O]C1=O [oxaliplatin]
stability to freeze/thaw [1]: no observed precipitation | tolerability of radiolabeled microdose [2]: well tolerated
